# According to publication PMC8729806, “Chaperones mainly suppress primary nucleation during formation of functional amyloid required for bacterial biofilm formation†” (Chemical Science, 2021):
# Target: CsgA from E. coli (residues 21-151), without its signal sequence (E. coli) (UniProt P28307)
substance,measurement,value
"engineered monomeric TTR variant (M-TTR, F87M/L110M) (from UniProt P02766 21-147) (natural protein)","fold reduction of the primary nucleation rate constant kn of spontaneous CsgA fibrillation (ThT kinetics, Amylofit), at 2 μM M-TTR (fold reduction)",6
